Results reported in patent publication US20250361239A1, “PROTEIN DEGRADERS AND USES THEREOF” (ZHUHAI YUFAN BIOTECHNOLOGIES CO., LTD., priority 2022, published 2025).

By UniProt entry, the sequences of proteins in these tests, tags left out.
UniProt P15170, whole entry: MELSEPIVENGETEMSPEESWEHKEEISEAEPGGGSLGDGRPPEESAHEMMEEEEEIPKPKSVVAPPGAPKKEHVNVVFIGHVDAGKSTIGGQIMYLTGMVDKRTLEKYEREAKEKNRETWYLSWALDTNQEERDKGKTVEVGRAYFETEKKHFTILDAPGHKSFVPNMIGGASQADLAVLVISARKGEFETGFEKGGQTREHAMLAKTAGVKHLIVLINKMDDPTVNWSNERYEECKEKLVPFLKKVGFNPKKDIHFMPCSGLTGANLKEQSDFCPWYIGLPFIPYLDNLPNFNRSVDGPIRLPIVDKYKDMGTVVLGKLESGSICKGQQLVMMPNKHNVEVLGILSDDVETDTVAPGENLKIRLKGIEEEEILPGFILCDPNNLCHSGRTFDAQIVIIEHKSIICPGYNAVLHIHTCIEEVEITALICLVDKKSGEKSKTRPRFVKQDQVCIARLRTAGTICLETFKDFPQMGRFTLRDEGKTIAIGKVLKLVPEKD
UniProt Q96SW2, whole entry: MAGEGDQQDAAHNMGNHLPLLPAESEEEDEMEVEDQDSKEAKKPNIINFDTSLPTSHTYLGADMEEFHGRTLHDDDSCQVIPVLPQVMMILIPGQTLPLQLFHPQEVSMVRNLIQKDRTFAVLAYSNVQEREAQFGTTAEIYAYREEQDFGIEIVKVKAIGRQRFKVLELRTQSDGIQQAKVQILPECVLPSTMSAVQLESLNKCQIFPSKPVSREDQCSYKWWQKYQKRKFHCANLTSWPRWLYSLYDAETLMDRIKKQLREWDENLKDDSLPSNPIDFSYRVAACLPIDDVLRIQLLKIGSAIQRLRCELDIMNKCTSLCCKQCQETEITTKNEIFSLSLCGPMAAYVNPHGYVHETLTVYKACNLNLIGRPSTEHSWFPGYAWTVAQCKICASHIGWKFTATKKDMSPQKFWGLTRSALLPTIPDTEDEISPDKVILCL
UniProt Q16531, whole entry partner: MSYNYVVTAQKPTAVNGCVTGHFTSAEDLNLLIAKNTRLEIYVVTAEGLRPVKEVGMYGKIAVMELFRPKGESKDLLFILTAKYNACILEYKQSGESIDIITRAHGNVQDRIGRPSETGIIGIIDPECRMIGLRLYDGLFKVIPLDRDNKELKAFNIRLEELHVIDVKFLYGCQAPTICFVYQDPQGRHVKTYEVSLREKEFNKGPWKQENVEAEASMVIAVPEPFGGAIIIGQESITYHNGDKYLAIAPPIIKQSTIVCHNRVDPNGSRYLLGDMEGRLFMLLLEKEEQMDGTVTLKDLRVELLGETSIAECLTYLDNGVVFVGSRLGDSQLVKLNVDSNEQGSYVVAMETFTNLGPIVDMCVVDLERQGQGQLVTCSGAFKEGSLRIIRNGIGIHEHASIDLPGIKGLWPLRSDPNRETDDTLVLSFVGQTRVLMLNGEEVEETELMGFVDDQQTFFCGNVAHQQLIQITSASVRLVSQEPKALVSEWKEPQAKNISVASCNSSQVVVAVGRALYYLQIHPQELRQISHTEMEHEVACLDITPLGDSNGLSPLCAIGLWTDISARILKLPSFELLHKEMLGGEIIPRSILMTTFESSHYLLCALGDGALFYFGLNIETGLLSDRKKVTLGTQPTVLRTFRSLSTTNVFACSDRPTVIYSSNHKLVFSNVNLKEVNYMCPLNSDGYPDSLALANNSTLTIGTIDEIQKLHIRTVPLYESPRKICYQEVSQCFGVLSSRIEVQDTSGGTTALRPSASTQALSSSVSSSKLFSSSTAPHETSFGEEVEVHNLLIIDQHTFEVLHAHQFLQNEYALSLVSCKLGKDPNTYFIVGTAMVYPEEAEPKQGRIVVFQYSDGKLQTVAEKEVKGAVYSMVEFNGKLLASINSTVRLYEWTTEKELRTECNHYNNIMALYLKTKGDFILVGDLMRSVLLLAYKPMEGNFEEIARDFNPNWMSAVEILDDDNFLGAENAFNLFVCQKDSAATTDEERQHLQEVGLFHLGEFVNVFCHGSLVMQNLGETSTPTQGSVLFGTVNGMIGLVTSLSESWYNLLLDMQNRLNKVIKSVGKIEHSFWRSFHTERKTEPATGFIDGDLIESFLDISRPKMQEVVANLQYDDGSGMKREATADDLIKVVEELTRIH

Key:
[1] = target: GSPT1 (Homo sapiens, UniProt P15170+Q96SW2); assay: Degradation of GSPT1 by the compounds (HiBiT signal in GSPT1/HEK293 hibit cells); conditions: 6 h incubation, Nano Glo HiBiT Lytic Detection
Method: GSPT1/HEK293 hibit cell lines were constructed by Shanghai BioDuro Co., Ltd., HEK293 cell lines were purchased from ATCC (Cat #ATCC® CRL-1573™), DMEM media were purchased from ATCC (Cat #ATCC® 30-2002™), FBS was purchased from Gibco (Cat #10091148), Nano Glo HiBiT Lytic Detection System was purchased from Promega (Cat #N3040), and 96-well plates were purchased from coming (Cat #3610).
The degradation of GSPT1 by the compounds was determined by measuring the intensity of hibit signals in cells. Firstly, the cells were digested with pancreatin, and the digestion was then terminated with medium. The cells were centrifuged, and the supernatant was discarded. The centrifuged cells were resuspended in a fresh complete medium, and the cell density was adjusted to 2.5×10^4 cells/mL. The resuspended cells were inoculated into an opaque 96-well cell culture plate at 100 μL of cell suspension per well, and the cell culture plate was incubated in a cell incubator at 37° C. overnight. […] After 6 h, 60 μL of Nano Glo HiBiT Lytic Detection System reagent was added and the luminescence values were read on the instrument.
According to the corresponding degradation rate and concentration of each gradient concentration well, a gradient curve of degradation rate was fitted using XLFit software, and the DC50 values of compounds were calculated.

[2] = tested on: HL60 cells; assay: HL60 cell killing experiment (CellTiter-Glo cell viability); conditions: 48 h incubation, CTG luminescence
Method: HL60 cell lines were purchased from ATCC (Cat #ATCC® CCL-240™), IMDM media were purchased from ATCC (Cat #ATCC® 30-2005™), FBS was purchased from Gibco (Cat #10091148), celltiter-glo luminescent cell viability assay was purchased from promega (Cat #G7572), and 96-well plates were purchased from corning (Cat #3610).
The effect of compounds on the growth of HL60 cells was determined by measuring cell viability. Firstly, cells in the logarithmic growth phase were collected and centrifuged, and the culture supernatant was discarded. The centrifuged cells were resuspended in a fresh complete medium, and the cell density was adjusted to 5×10^4 cells/mL. The resuspended cells were inoculated into two opaque 96-well cell culture plates at 100 μL of cell suspension per well, and the cell culture plates were incubated in a cell incubator at 37° C. for 4 h. […] After one of the cell plates was cooled to room temperature, 60 μL of CTG reagent was added, and the luminescence values were read on the instrument as G0. […] After 48 h, 60 μL of CTG reagent was added, and the luminescence values were read on the instrument as G3.
According to the corresponding proliferation rate and concentration of each gradient concentration well, a gradient curve of cell proliferation was fitted using XLFit software, and the GI50 values of compounds were calculated.

In the case of `O=C1CCC(N2Cc3c(OCc4ccnc(C(=O)N[C@H]5CC[C@H](c6nc7cccnc7s6)CC5)c4)cccc3C2=O)C(=O)N1` (some centres unmarked), the DC50 [1] is reported as < 100 nM and the GI50 [2] is reported as < 100 nM.
